Results taken from ChEMBL document CHEMBL1141687, “Design, syntheses, and structure-activity relationships of novel NPY Y5 receptor antagonists: 2-{3-Oxospiro[isobenzofuran-1(3H),4'-piperidin]-1'-yl}benzimidazole derivatives” (Bioorg Med Chem Lett, 2008).

Assays:
[1] = Selectivity ratio of IC50 for NPY Y1 receptor to IC50 for human NPY Y5 receptor
[2] = Selectivity ratio of IC50 for NPY Y2 receptor to IC50 for human NPY Y5 receptor
[3] = Selectivity ratio of IC50 for NPY Y4 receptor to IC50 for human NPY Y5 receptor

Measured: Ratio IC50

COC(=O)c1ccc2[nH]c(N3CCC4(CC3)OC(=O)c3ccccc34)nc2c1
> 1000: all assays above

O=C1OC2(CCN(c3nc4cc(-c5ccccc5)ccc4[nH]3)CC2)c2ccccc21
> 1000: all assays above

O=C1OC2(CCN(c3nc4cc(Cl)ccc4[nH]3)CC2)c2ccccc21
> 1000: all assays above

O=C1OC2(CCN(c3nc4cc(Cl)c(Cl)cc4[nH]3)CC2)c2ccccc21
> 1000: all assays above
